Assay results taken from article PMC7345905, “Microbial Metabolite Urolithin B Inhibits Recombinant Human Monoamine Oxidase A Enzyme” (Metabolites, 2020).
“And” between values parts separate entries of the source, which are not always exact repeats. Identical values can stand only once.

Amino acid sequences for entries named in this document (tags omitted).
UniProt P27338, whole entry: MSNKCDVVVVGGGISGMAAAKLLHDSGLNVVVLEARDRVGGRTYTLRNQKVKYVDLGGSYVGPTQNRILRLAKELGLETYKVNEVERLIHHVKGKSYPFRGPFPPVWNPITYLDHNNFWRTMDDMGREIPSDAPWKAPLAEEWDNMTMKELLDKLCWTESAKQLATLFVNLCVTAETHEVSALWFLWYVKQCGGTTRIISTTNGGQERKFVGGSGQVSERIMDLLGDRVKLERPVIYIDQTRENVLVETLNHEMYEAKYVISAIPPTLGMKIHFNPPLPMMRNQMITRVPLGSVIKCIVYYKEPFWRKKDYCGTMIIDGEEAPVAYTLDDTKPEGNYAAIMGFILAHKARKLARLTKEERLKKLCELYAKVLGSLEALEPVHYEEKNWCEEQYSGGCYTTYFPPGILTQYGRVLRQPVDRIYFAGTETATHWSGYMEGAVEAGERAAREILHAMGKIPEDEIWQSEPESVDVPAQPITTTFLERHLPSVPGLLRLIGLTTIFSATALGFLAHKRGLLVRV

Biological target: T1, human recombinant MAO-B (Homo sapiens, UniProt P27338)
T1 construct: purchased Sigma-Aldrich
Test: MAO-Glo MAO-B inhibition assay
Assay type: biochemical
Method: MAO inhibition assays were performed using a MAO-Glo™ Assay kit (Promega) according to the manufacturer’s instructions. Briefly, 1 µg of human recombinant MAO-A and MAO-B enzyme isoforms were incubated with 160 and 16 µM of MAO substrates, respectively. […] The enzyme reaction was quenched by the addition of a luciferin detection reagent. […] An equal volume of dimethyl sulfoxide (0.1%) was added to the enzyme assay as a control. After 1 h of incubation, the luminescence was measured with a multimode microplate reader (Synergy HT, BioTek, Winooski, VT, USA) to determine the MAO enzyme activities. Initially, the inhibition potential of all the test compounds was evaluated at a concentration of 100 μM. The control reaction (with no inhibitor) with vehicle (DMSO 0.1%) was set at 100% activity. To determine IC50 of the test compounds, the dose dependent enzyme assays were performed. […] The type of enzyme inhibition was determined using variable concentrations of MAO-A substrate (10–360 µM) and MAO-B substrate (2–64 µM) for the respective enzyme assay. […] A Lineweaver–Burk double reciprocal plot was generated, and the mode of inhibition was determined by visual examination of the plot. The slope of the reciprocal plots was plotted against the inhibitor concentrations and determined the x-axis intercept that represented the inhibitor constant, Ki value.

deprenyl [reference compound]
MAO-B enzyme assay, Percent of control: 23.6257% of control and 26.4174% of control and 28.6413% of control | inhibition of MAO-B enzyme activity (5 µM): more than 60%
